Measurements from patent publication US11518783B2, “Peptides having tetrahedral mimicking groups as inhibitors of rhomboid proteases” (priority 2016, dated 2022).

The chains behind the UniProt entries cited, without tags or fusion partners. Where a name states a change or a piece, a line headed by the entry shows the natural chain unless it says otherwise.
UniProt P09391: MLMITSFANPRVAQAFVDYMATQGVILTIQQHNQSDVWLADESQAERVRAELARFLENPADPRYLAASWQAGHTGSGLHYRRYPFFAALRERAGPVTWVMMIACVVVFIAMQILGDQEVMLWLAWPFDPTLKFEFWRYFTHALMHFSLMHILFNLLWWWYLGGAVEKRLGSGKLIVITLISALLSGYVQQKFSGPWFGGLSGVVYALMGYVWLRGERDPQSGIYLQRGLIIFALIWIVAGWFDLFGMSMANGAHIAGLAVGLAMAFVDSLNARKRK

Molecular target: GlpG (Escherichia coli, UniProt P09391)
Conditions: living E. coli cells, liquid culture, no preincubation

Ac-VRMA-B(OH)2
EC50 for inhibition of endogenous GlpG in E. coli cells: sub-micro molar
